Measurements: article PMC10534724 (2023)

Experiments:
hOCT2 = biological target: T1, hOCT2 (Homo sapiens, UniProt O15244); assay: Inhibition of hOCT2-mediated substrate uptake in transfected HEK293 cells; format: in vitro ADME; conditions: for Fold Difference of IC50, coincubation vs preincubation, hOCT2: [14C]metformin uptake, 30-min preincubation; for unbound Cmax/IC50, hOCT2: FDA criterion > 0.1
T1 sequence (O15244 1-555): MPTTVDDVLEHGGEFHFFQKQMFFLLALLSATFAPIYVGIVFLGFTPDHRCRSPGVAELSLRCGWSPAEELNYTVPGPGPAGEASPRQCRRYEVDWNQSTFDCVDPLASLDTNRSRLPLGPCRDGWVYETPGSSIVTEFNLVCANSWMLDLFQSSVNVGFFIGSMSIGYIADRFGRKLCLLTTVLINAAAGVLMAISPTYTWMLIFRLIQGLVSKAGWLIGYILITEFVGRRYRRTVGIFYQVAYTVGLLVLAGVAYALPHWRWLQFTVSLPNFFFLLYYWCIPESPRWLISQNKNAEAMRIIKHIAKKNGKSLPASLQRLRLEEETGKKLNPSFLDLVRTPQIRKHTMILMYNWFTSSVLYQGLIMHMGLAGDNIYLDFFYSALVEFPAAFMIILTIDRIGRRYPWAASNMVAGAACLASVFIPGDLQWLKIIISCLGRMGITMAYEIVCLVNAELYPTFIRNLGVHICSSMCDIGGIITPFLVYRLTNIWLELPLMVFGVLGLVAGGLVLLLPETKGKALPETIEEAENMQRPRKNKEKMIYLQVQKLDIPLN

hMATE2-K = biological target: T2, hMATE2-K (Homo sapiens, UniProt Q86VL8); assay: Inhibition of hMATE2-K-mediated substrate uptake in transfected HEK293 cells (pH 8.0); conditions: FDA criterion > 0.1
T2 sequence (Q86VL8 1-566 isoform Q86VL8-3): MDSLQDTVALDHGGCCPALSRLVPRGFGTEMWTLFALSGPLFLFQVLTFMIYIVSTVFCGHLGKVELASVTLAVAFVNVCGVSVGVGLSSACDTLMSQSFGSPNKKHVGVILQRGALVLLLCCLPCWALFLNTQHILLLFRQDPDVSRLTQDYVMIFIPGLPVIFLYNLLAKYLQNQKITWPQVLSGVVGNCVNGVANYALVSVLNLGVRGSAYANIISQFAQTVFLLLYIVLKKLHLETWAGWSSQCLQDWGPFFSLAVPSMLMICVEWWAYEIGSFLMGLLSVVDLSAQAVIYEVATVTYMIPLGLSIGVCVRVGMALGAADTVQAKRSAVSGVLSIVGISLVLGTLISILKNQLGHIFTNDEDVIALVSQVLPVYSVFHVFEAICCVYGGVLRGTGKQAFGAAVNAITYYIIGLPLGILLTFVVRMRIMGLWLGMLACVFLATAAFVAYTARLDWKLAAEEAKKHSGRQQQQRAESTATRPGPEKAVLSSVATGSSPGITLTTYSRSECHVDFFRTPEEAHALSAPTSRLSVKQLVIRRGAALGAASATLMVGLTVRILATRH

hOCT3 = biological target: T3, hOCT3 (Homo sapiens, UniProt O75751); assay: Inhibition of hOCT3-mediated substrate uptake in transfected HEK293 cells; format: in vitro ADME; conditions: for unbound Cmax/IC50, hOCT3: FDA criterion > 0.1
T3 sequence (O75751 1-556): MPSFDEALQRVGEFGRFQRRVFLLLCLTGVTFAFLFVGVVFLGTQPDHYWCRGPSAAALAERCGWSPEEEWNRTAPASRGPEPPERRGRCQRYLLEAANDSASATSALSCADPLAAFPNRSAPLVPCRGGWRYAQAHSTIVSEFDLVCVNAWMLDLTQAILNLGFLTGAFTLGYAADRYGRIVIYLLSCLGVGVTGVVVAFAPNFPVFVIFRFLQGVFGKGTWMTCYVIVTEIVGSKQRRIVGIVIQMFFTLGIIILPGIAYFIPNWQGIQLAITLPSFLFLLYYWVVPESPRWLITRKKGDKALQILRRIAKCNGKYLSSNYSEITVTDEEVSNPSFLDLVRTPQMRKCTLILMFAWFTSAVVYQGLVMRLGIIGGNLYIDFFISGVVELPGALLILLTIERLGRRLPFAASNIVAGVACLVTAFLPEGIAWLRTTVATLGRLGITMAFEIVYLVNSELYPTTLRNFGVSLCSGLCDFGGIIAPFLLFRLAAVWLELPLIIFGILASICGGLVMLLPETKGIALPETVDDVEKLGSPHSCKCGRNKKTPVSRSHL

hMATE1 = biological target: T4, hMATE1 (Homo sapiens, UniProt Q96FL8); assay: Inhibition of hMATE1-mediated substrate uptake in transfected HEK293 cells (pH 8.0); format: in vitro ADME; conditions: for unbound Cmax/IC50, hMATE1: FDA criterion > 0.1
T4 sequence (Q96FL8 1-570): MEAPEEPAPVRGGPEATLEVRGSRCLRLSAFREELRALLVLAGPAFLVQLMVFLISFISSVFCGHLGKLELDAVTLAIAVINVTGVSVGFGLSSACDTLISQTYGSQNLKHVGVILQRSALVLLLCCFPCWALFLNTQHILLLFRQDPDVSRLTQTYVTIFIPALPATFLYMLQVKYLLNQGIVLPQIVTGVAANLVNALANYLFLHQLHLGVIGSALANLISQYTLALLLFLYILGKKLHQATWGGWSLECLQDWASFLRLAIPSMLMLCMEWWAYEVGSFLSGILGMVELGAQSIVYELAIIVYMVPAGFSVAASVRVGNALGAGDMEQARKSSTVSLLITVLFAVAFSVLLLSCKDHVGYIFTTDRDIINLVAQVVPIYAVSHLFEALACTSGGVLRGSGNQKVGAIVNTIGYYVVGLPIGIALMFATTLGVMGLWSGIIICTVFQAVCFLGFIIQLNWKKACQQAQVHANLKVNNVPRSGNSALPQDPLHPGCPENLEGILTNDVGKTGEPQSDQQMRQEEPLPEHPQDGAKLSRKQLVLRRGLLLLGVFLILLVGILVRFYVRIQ

hOCT1 = biological target: T5, hOCT1 (Homo sapiens, UniProt O15245); assay: Inhibition of hOCT1-mediated substrate uptake in transfected HEK293 cells; format: in vitro ADME; conditions: FDA criterion > 0.1
T5 sequence (O15245 1-554): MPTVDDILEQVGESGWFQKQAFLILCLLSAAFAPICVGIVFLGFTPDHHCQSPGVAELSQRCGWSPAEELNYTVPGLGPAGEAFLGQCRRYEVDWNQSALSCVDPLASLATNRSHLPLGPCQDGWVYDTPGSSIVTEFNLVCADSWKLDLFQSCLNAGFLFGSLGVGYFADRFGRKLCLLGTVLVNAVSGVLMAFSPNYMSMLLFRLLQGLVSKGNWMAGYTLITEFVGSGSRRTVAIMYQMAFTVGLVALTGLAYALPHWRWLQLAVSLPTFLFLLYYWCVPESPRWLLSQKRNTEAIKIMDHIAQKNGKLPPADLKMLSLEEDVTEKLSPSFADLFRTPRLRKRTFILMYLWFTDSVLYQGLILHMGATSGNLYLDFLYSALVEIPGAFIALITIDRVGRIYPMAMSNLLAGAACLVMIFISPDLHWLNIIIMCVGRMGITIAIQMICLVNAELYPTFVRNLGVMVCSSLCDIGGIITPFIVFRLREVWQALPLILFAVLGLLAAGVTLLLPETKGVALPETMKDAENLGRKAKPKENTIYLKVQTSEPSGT

## COc1cc(N2CCC(N3CCN(C)CC3)CC2)ccc1Nc1ncc(Cl)c(Nc2ccccc2P(C)(C)=O)n1 [Brigatinib]
hOCT2
  Fold Difference of IC50, coincubation vs preincubation, hOCT2: 2.3
hOCT2; listed as brigatinib
  Fold Difference of IC50, coincubation vs preincubation, hOCT2: around two-fold
hOCT2; substrate MPP+
  unbound Cmax/IC50, hOCT2: <0.002
hOCT2; substrate mIBG
  unbound Cmax/IC50, hOCT2: 0.005
hOCT2; substrate metformin
  unbound Cmax/IC50, hOCT2: 0.03
hMATE2-K; substrate MPP+
  unbound Cmax/IC50, hMATE2-K: <0.002
hMATE2-K; substrate mIBG
  unbound Cmax/IC50, hMATE2-K: 0.004
hMATE2-K; substrate metformin
  unbound Cmax/IC50, hMATE2-K: 0.02
hOCT3; substrate MPP+
  unbound Cmax/IC50, hOCT3: 0.33
hOCT3; substrate mIBG, IC50 ratio
  selectivity: inhibition of hOCT3 more potent than of hOCT1: 14 fold
  selectivity: inhibition of hOCT3 more potent than of hOCT2: at least 100 fold
hOCT3; substrate mIBG
  unbound Cmax/IC50, hOCT3: 0.70
hOCT3; substrate metformin
  unbound Cmax/IC50, hOCT3: 0.99
hMATE1; [14C]metformin uptake, 30-min preincubation
  Fold Difference of IC50, coincubation vs preincubation, hMATE1: 1.4
hMATE1; substrate MPP+
  unbound Cmax/IC50, hMATE1: 0.42
hMATE1; substrate mIBG, IC50 ratio
  selectivity: inhibition of hMATE1 more potent than of hMATE2-K: at least 50 fold
hMATE1; substrate mIBG
  unbound Cmax/IC50, hMATE1: 0.44
hMATE1; substrate metformin
  unbound Cmax/IC50, hMATE1: 0.51
hOCT1; substrate MPP+
  unbound Cmax/IC50, hOCT1: 0.03
hOCT1; substrate mIBG
  unbound Cmax/IC50, hOCT1: 0.05
hOCT1; substrate metformin
  unbound Cmax/IC50, hOCT1: 0.75
